Laboratory results published in patent US20140274782A1, “AFFINITY REAGENTS AND METHODS FOR DETECTION, PURIFICATION, AND PROTEOMIC ANALYSIS OF METHYLATED PROTEINS” (The Board of Trustees of the Leland Stanford Junior …, priority 2013, published 2014).

How the values were obtained:
3×MBT domain of L3MBTL1 = test: Triple SILAC pull-down, 3xMBT/3xMBTD355N ratio (cytoplasmic, nuclear and chromatin fractions of 293T cells); type: binding, human; details: for 3xMBT/D355N UNC Heavy: experiment with UNC0638 in heavy SILAC media; for 3xMBT/D355N UNC Light: experiment with UNC0638 in light SILAC media;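 for all read-outs here: proteins quantified with MaxQuant, requiring at least two unique peptides and quantification in both label directions, normalized to the mean of proteins from a digested loading control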
G9a and GLP = target: T1, G9a and GLP (Homo sapiens, UniProt Q96KQ7+Q9H9B1); test: Triple SILAC pull-down after UNC0638 treatment of 293T cells, DMSO/UNC0638 ratio of protein captured by 3×MBT; type: cell-based; parameters: cells were treated for 24 hours with UNC0638 at 2.5 μM or DMSO vehicle control; endogenous in cells; host or cells: HEK 293T; details: for Relative to UNC0638 UNC Heavy: UNC0638 in heavy SILAC media; for Relative to UNC0638 UNC Light: UNC0638 in light SILAC media; for Relative to UNC0638 Average: average of UNC Light and UNC Heavy experiments;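 for all read-outs here: mass spectrometry (Q-Exactive) SILAC quantitation, DMSO/UNC0638 ratio computed after subtracting 3×MBTD355N mutant pull-down background, only proteins with at least twofold 3×MBT over mutant signal considered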
T1 sequence (Q96KQ7 2-1210 limits assumed): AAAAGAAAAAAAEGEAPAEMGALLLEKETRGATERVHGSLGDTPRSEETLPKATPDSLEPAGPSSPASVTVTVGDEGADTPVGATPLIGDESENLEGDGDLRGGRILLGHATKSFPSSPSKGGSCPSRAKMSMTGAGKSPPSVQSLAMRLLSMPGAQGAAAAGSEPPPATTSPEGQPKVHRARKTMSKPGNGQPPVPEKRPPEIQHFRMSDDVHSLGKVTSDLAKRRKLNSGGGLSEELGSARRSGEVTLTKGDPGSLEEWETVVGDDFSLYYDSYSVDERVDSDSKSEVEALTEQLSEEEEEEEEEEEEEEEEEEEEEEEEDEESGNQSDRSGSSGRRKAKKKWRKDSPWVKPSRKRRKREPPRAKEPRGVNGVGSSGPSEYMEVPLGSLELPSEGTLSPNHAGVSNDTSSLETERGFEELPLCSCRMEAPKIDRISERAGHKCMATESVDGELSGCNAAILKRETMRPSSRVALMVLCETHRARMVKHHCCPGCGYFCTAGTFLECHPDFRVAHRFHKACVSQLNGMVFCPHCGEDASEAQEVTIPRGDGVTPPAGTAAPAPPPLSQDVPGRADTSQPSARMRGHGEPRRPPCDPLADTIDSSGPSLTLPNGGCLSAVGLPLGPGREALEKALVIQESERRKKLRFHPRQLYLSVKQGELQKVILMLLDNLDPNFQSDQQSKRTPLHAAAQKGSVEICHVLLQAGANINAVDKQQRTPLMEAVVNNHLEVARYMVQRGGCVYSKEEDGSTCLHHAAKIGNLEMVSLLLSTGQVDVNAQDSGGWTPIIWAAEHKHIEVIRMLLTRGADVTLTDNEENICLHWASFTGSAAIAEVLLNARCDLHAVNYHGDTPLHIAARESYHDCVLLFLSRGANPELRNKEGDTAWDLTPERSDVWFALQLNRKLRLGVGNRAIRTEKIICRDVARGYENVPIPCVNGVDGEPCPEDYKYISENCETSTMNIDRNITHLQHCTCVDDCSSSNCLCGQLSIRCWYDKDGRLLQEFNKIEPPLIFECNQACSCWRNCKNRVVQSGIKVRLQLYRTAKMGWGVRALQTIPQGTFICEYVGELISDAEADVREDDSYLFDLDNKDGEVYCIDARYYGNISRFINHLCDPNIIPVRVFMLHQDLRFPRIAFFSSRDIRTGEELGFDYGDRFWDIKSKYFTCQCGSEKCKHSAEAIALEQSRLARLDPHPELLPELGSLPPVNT
T1 sequence (Q9H9B1 2-1298 limits assumed): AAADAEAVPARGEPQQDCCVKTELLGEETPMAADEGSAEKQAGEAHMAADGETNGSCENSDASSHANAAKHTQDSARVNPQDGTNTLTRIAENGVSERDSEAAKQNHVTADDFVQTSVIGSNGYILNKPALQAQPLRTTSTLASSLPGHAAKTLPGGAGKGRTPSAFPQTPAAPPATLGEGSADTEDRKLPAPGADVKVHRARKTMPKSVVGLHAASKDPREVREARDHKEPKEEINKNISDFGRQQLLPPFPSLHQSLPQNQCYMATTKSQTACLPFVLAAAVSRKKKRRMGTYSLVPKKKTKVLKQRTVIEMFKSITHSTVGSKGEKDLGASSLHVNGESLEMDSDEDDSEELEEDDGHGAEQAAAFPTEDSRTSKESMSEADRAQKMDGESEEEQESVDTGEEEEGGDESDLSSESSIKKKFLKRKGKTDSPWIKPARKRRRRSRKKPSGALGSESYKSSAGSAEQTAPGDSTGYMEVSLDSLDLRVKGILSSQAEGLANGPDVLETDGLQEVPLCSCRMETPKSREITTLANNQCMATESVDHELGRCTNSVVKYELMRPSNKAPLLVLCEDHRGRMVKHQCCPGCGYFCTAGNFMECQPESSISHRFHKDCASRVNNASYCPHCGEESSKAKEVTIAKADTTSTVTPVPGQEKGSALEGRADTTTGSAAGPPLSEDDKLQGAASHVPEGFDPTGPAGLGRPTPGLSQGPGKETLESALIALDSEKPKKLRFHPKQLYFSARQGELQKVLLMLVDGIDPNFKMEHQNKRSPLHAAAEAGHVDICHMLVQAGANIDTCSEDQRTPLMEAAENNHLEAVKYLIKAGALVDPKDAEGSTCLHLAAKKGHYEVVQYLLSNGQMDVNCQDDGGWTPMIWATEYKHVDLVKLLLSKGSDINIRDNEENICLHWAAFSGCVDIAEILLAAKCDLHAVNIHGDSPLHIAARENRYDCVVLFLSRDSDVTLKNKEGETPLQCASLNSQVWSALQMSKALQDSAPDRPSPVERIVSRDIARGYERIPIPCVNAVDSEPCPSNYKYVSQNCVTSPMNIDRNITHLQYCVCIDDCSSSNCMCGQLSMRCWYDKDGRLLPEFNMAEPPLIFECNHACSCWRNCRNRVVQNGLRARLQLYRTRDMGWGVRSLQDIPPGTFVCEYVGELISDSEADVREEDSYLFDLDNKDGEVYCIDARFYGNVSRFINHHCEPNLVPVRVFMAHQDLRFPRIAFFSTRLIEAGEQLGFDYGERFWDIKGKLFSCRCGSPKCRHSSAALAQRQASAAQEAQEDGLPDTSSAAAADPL

[1] = SILAC ratio, pull-down 3xMBT vs 3xMBTD355N
[2] = SILAC ratio DMSO/UNC0638 of protein pulled down with 3xMBT
[3] = SILAC ratio 3xMBT vs 3xMBTD355N pull-down, 293T cells, all values in log base 2
[4] = SILAC ratio DMSO relative to UNC0638, pull-down with 3xMBT, all values in log base 2

**Q.** How did the “3xMBT/D355N UNC Heavy” value (3×MBT domain of L3MBTL1; [1]) turn out when C4orf27 [Hit C4orf27] was run?
**A.** 3.45 log base 2

**Q.** What about the “3xMBT/D355N UNC Light” value (3×MBT domain of L3MBTL1; [1]) of the same substance?
**A.** 3.14 log base 2

**Q.** What about the “Relative to UNC0638 UNC Heavy” value (G9a and GLP; [2]) of the same substance?
**A.** 0.09 log base 2

**Q.** What about the “Relative to UNC0638 UNC Light” value (G9a and GLP; [2]) of the same substance?
**A.** 0.21 log base 2

**Q.** And the “Relative to UNC0638 Average” value (G9a and GLP)?
**A.** 0.15 log base 2

**Q.** Which results are given for PRRC2C?
**A.** 3xMBT/D355N UNC Heavy (3×MBT domain of L3MBTL1; [3]): 3.32 log base 2; 3xMBT/D355N UNC Light (3×MBT domain of L3MBTL1; [3]): 2.21 log base 2; Relative to UNC0638 UNC Heavy (G9a and GLP; [4]): 0.19 log base 2; Relative to UNC0638 UNC Light (G9a and GLP; [4]): −0.44 log base 2; Relative to UNC0638 Average (G9a and GLP; all values in log base 2): −0.13 log base 2
